# Reference: patent publication US20130029970A1 (priority 2009, published 2013)
# Chains of the proteins cited; added tags and fusions are not shown.
# UniProt P34972, whole entry: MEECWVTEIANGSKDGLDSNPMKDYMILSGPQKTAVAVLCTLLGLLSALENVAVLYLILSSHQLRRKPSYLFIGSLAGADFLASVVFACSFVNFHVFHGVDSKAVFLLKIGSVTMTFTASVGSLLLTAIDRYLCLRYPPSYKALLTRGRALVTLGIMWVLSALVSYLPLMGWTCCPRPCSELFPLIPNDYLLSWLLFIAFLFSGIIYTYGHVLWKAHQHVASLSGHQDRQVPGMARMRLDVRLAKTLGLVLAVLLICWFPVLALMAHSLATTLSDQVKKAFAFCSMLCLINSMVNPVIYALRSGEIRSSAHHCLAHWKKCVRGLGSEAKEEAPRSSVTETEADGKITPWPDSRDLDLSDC
# UniProt P21554, whole entry: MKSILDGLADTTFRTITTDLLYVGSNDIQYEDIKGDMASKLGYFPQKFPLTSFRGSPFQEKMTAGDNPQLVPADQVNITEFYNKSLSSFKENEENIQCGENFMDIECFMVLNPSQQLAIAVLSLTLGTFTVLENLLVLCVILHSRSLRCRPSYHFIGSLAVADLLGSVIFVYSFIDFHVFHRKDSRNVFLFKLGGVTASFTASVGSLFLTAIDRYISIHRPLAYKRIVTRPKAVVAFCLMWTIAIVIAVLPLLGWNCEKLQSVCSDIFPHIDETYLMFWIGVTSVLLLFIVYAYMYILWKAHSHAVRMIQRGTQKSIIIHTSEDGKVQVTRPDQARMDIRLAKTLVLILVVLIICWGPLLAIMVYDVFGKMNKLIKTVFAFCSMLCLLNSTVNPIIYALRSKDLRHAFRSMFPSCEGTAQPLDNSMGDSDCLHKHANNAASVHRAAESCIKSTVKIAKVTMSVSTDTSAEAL
# Experiments:
# human CB2 receptors = molecular target: T1, human CB2 receptors (Homo sapiens, UniProt P34972); assay: cAMP assay in HEK-293 cells, hCB2 agonist; format: cell-based
# T1 construct: (cDNA clone) CNR0200000
# Method: (§1) Functional assays which monitor G-protein coupled receptor or downstream cellular responses can be used to characterize potential CB1 receptor and/or CB2 receptor agonist or antagonist activities. Direct activation (or inhibition of activation) can be monitored using a GTPγS assay (membrane-based assay) or cAMP assay (whole cell-based assay).
# cAMP assays were performed in HEK-293 cells stably expressing human CB1 or CB2 receptors. […] Cells suspensions were centrifuged and the cells were washed once with PBS, were centrifuged again, and the cells were re-suspended in HBSS (Hank's Balanced Salt Solution, Cellgro, Cat #21-022-CV) solution containing 10 mM HEPES and 0.1% fatty acid free BSA (Sigma, Cat #A0281). Cell suspensions were prepared at 1,500,000 cells per ml. Stock solutions of test substances (10 mM) in DMSO were diluted to 1 mM using 30% DMSO as diluent. Test substances of solutions (1 mM) were further diluted down to 3× of final assay concentrations in the above HBSS buffer containing 0.1% BSA in the presence of 90 uM forskolin (Sigma Cat#F6886). […] Cells were lysed and cAMP concentration was measured using DiscoveRx −XS+ cAMP assay kit (DiscoveRx Corporation Ltd., Fremont, Calif., USA, Cat #90-0075-03), following the manufacturer's protocol. […]
# human CB1 (hCB1) = molecular target: T2, human CB1 (hCB1) (Homo sapiens, UniProt P21554); assay: 35S GTPγS binding assay, hCB1 agonist; format: biochemical
# T2 construct: (cDNA clone) CNR01L000
# Source text: (§2) cDNA expression clones for human CB1 (hCB1, Genbank Accession No. AY225225) and human CB2 (hCB2, Genbank Accession No. AY242132) expressed in vector pcDNA3.1+ were purchased from UMR cDNA Resource Center, Rolla, Mo. (Clone ID CNR01L000 for hCB1; CNR0200000 for hCB2).
# Stable, HEK-293-derived cell lines that recombinantly express hCBI or hCB2 were established. In brief, the clone hCB1 (CNR IL) or hCB2 (CNR2) was transfected into human embryonic kidney cells (HEK-293) using Lipofectamine 2000 (Gibco, Cat#11668-019) according to the manufacturer's protocol. Transfected clones were isolated by single colony purification and clones were screened for receptor expression using a whole cell, ^3H—CP 55,940 radioligand binding assay. […]
# Membranes were isolated from transfected cells as follows. […] Protein concentration of membrane suspensions were measured by Bradford Protein Assay using bovine serum albumin as the standard (BioRad catalog #500-0006). […]
# as §1, with “assay). […]” for “assay).”
# human CB2 (hCB2) = molecular target: T3, human CB2 (hCB2) (Homo sapiens, UniProt P34972); assay: 35S GTPγS binding assay, hCB2 agonist; format: biochemical
# T3 construct: (cDNA clone) CNR0200000
# Method: as §2
# Membranes were isolated from transfected cells as follows. Monolayers of cultured cells were washed twice with phosphate-buffered saline (PBS). […] Homogenates were centrifuged 10 minutes at 1000×g at 4° C. The supernatant was collected and was centrifuged for 1 hour at 40,000×g. The supernatant was then decanted and the resulting pellet was re-suspended in 20 mM HEPES, pH 7.4, 5 mM MgCl2, 1 mM EDTA, 10% sucrose with complete cocktail protease inhibitors. Protein concentration of membrane suspensions were measured by Bradford Protein Assay using bovine serum albumin as the standard (BioRad catalog #500-0006). Protein concentrations of membrane suspensions were adjusted with the final buffer in the range of 5 to 10 mg/mL and were stored at −80° C. until further use.
# as §1, with “assay). […]” for “assay).”
structure (smiles),measurement,setting,value
"COc1ccc(C(=O)c2cc3ccn(CCN4CCOCC4)c3s2)cc1 [Compound 160, (4-methoxyphenyl)(6-(2-morpholinoethyl)-6H-thieno[2,3-b]pyrrol-2-yl)methanone]",EC50,human CB2 receptors,100 to 1000 nM
same,EC50,human CB1 (hCB1),> 10000 nM
same,EC50,human CB2 (hCB2),1000 to 10000 nM
